# scFv variants of Ab-95 (light chain) against a SARS-CoV-2 spike peptide

Reference: Engelhart et al. 2022, doi:10.1038/s41597-022-01779-4. File: FLAb, binding data.

All variants were tested on one target, the spike HR2 peptide PDVDLGDISGINAS (SARS-CoV-2).

Ab-95 is the parent antibody, in scFv form: VH, then a 15-residue (Gly4Ser)3 linker, then VL. The heavy chain is unchanged in all variants.
VH: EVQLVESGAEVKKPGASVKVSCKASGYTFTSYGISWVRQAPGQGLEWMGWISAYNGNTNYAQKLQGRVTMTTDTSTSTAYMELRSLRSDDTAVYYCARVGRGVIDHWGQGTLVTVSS
VL: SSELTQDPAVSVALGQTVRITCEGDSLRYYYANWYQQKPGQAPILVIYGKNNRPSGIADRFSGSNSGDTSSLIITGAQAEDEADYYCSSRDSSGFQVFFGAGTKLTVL

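The parent was found by panning a naive human phage display library on the peptide. Variants in AAYL52 differ from the parent at up to three CDR positions; double and triple changes were sampled at random. In AlphaSeq, yeast of one mating type display the scFv and yeast of the other type display the target. Binding brings cells together so that they mate, and sequencing counts the barcode pairs among the diploids. The ratio of observed to expected reads was calibrated, replicate by replicate, on BCL2-family standards whose Kd was known from biolayer interferometry. The assay was run in three technical replicates.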

Changes read parent residue, position, new residue, counted from the first residue of the VL shown.
Values are log10 of the apparent Kd in nM; lower means stronger binding.
A mean of the replicates is given; it leaves out those without a signal.
Where no diploid with the target was found in that replicate, the entry reads "nd": below detection, most likely a poor binder, though not proof of it.
As a blank, each scFv also met three strains without target: over library AAYL52, 28% of these pairings were detected, typically at 3.91 and seldom below 2.90. Also given: how often the same scFv was detected with the empty control strains, with their mean in brackets.

| changes | replicates, log10 nM | mean, log10 nM | signal with controls |
|---|---|---|---|
| S26F/K50I/D91M | 3.59 2.76 nd | 3.18 | 2 of 9 (4.31) |
| K50Q/N51A/R53F | 5.00 5.58 nd | 5.29 | 2 of 9 (3.93) |
| G49C/N52P/S88A | 4.35 nd nd | 4.35 | 1 of 9 (4.88) |
| G24T/D25W/G94C | 4.94 nd 3.30 | 4.12 | 3 of 9 (4.43) |
| Y31H/R53S/F95P | 3.04 2.58 2.58 | 2.73 | 6 of 9 (3.66) |
| S55W/S93R/F95M | 3.96 3.23 2.76 | 3.32 | 2 of 9 (3.93) |
| S26L/G49R | nd nd nd | nd | 0 of 9 |
| G49I/K50M/Q96T | 4.93 3.75 nd | 4.34 | 2 of 9 (3.22) |
| N52R/R53T/Q96Y | 3.43 nd 3.33 | 3.38 | 1 of 9 (4.95) |
| S55Q/S89K/V97T | nd nd 3.39 | 3.39 | 1 of 9 (3.81) |
| D91P/F98N | 3.83 2.84 2.92 | 3.20 | 3 of 9 (4.65) |
| Y31F/A32Y/P54A | nd 3.96 3.39 | 3.68 | 1 of 9 (3.55) |
| S89W/S93L/G94P | 3.55 nd 3.80 | 3.67 | 4 of 9 (3.82) |
| E23H/S55E/F98V | 2.41 2.41 2.14 | 2.32 | 3 of 9 (3.94) |
| Y30N/Y31K/F95K | 1.65 1.42 1.07 | 1.38 | 4 of 9 (4.12) |
| N52T/D91N/Q96E | 3.75 nd nd | 3.75 | 1 of 9 (4.13) |
| R53A/Q96D/V97M | 2.89 2.92 2.14 | 2.65 | 3 of 9 (4.09) |
| K50T/N52R/S93I | 3.99 3.96 nd | 3.98 | 1 of 9 (5.49) |
| R28C/S89D/G94V | 3.76 4.02 3.69 | 3.83 | 3 of 9 (4.59) |
| L27S/N33Q/R90L | nd nd nd | nd | 3 of 9 (3.53) |
| D25R/R28D/F95V | 3.22 3.68 2.32 | 3.07 | 4 of 9 (4.16) |
| S26V/S55D/S92P | 2.82 2.90 3.19 | 2.97 | 4 of 9 (4.15) |
| S26N/L27E/R28K | 3.23 4.21 3.74 | 3.72 | 1 of 9 (3.35) |
| F98T | 2.87 2.92 2.58 | 2.79 | 2 of 9 (4.25) |
| R28A/S93L/F95G | 2.27 3.47 nd | 2.87 | 5 of 9 (3.93) |
| S88G/S92I/V97Q | 2.73 2.78 2.25 | 2.59 | 4 of 9 (3.97) |
| S26F/R28F/G49M | nd nd nd | nd | 1 of 9 (3.67) |
| V97D | 2.66 2.30 2.07 | 2.34 | 3 of 9 (3.42) |
| S26R/Y30T/V97N | 2.80 4.43 nd | 3.62 | 4 of 9 (3.46) |
| N33F/R53L/S92C | nd nd nd | nd | 0 of 9 |
| E23K/L27E/N51I | 3.50 nd nd | 3.50 | 3 of 9 (3.78) |
| S26K/F95M/F98C | 3.95 4.12 nd | 4.03 | 2 of 9 (4.08) |
| S26K/N52C/S89T | 4.38 4.66 nd | 4.52 | 4 of 9 (4.00) |
| E23H/L27M/Y30T | 1.60 1.95 1.38 | 1.64 | 1 of 9 (4.42) |
| D25R/P54M/S93E | 2.98 3.01 2.74 | 2.91 | 0 of 9 |
| Y29R/Y30Q/G49M | 1.90 1.80 1.60 | 1.77 | 4 of 9 (4.51) |
| D25R/S26D/S92I | 2.63 2.49 2.46 | 2.53 | 1 of 9 (5.60) |
| D25M/R28S/Q96V | nd 3.65 3.65 | 3.65 | 1 of 9 (2.64) |
| K50L/S92T | 2.97 2.85 2.85 | 2.89 | 1 of 9 (4.21) |
| P54S/R90V/V97E | 3.42 3.09 nd | 3.26 | 0 of 9 |
| D25M/G49V/S55K | 2.94 3.72 4.13 | 3.60 | 1 of 9 (4.04) |
| D25Q/S55W/Q96F | 2.89 2.51 2.89 | 2.76 | 0 of 9 |
| S26V/R90A/S92V | 4.44 3.96 nd | 4.20 | 5 of 9 (4.34) |
| D25H/R90K/D91H | nd nd nd | nd | 1 of 9 (4.68) |
| E23A/P54V/G94H | 5.45 5.35 nd | 5.40 | 3 of 9 (3.68) |
| S88I/S89I/S92Y | 2.70 3.11 4.78 | 3.53 | 3 of 9 (5.02) |
| L27Q/R28C/S88E | 5.55 3.55 nd | 4.55 | 1 of 9 (3.65) |
| L27W/G94T | nd nd nd | nd | 0 of 9 |
| L27K/G49T/S89R | nd nd nd | nd | 1 of 9 (3.40) |
| L27Y/R90M/D91I | 4.17 nd 3.32 | 3.74 | 4 of 9 (4.23) |
| N33I/S89Q/S93N | nd nd nd | nd | 0 of 9 |

Picked from the list: the 8 lowest averages where every replicate gave a value.

{"changes": "Y30N/Y31K/F95K", "replicates, log10 nM": "1.65 1.42 1.07", "mean, log10 nM": "1.38", "signal with controls": "4 of 9 (4.12)"}
{"changes": "E23H/L27M/Y30T", "replicates, log10 nM": "1.60 1.95 1.38", "mean, log10 nM": "1.64", "signal with controls": "1 of 9 (4.42)"}
{"changes": "Y29R/Y30Q/G49M", "replicates, log10 nM": "1.90 1.80 1.60", "mean, log10 nM": "1.77", "signal with controls": "4 of 9 (4.51)"}
{"changes": "E23H/S55E/F98V", "replicates, log10 nM": "2.41 2.41 2.14", "mean, log10 nM": "2.32", "signal with controls": "3 of 9 (3.94)"}
{"changes": "V97D", "replicates, log10 nM": "2.66 2.30 2.07", "mean, log10 nM": "2.34", "signal with controls": "3 of 9 (3.42)"}
{"changes": "D25R/S26D/S92I", "replicates, log10 nM": "2.63 2.49 2.46", "mean, log10 nM": "2.53", "signal with controls": "1 of 9 (5.60)"}
{"changes": "S88G/S92I/V97Q", "replicates, log10 nM": "2.73 2.78 2.25", "mean, log10 nM": "2.59", "signal with controls": "4 of 9 (3.97)"}
{"changes": "R53A/Q96D/V97M", "replicates, log10 nM": "2.89 2.92 2.14", "mean, log10 nM": "2.65", "signal with controls": "3 of 9 (4.09)"}